The numbers were not newly measured in US20260137799A1, “ANTI-MUC1* ANTIBODY DRUG COMPLEXES AND USES THEREOF” (Minerva Biotechnologies Corporation, priority 2023, published 2026), which cites them from elsewhere.

The series has as its system HER2+ breast cancers. The note with it: cited from earlier work.

For Enhertu, the “patients with treatment induced pneumonitis” value (human, in vivo) is recorded as “Up to 16%”. Moreover, the increase in survival entry (metastatic breast cancer patients) is reported as “nearly two years”.
